Reference: PubChem BioAssay AID1508608 (The Scripps Research Institute Molecular Screening Center, 2020)
The list shows a part of the results, in another mix than the full data. Activity calls are given as the source filed them.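 Rule for the calls: active = mean activation across replicates above 26.72%, the hit cutoff set for this confirmation screen; inactive = the rest.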

Protein sequences, listed by entry. Tags and fused reporters are not part of them.
UniProt Q8TDV0, whole entry: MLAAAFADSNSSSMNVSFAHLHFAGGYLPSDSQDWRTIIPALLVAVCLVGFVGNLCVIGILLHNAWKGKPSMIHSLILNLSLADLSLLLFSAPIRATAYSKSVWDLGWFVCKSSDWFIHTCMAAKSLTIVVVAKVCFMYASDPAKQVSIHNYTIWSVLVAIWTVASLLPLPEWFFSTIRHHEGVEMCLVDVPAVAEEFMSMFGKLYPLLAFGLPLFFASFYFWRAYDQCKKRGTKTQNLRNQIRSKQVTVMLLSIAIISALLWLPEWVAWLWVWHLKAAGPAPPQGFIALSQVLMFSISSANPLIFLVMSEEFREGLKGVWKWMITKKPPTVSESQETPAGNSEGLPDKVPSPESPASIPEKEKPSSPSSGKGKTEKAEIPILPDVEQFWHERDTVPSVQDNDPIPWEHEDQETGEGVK

Molecular target: G-protein coupled receptor 151 (Homo sapiens) (UniProt Q8TDV0)
Assay: GPR151 agonism via beta-arrestin recruitment – cell-based, PathHunter beta-arrestin, luminescence, set 2, confirmation (AID 1508608);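 note: 0% = plate median of compound wells and 100% = EA reagent high control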
Conditions: GPR151 PathHunter beta-arrestin cells, 90 min, at 11.2 µM, active compounds read high, 100% = signal from added EA reagent

| Compound | activation |
| --- | --- |
| CCCN1CCC(Nc2ccc(Cl)cc2)CC1 | inactive: 7.14% |
